# Measured values from ChEMBL document CHEMBL1122788, “Quantitative relationships between alpha-adrenergic activity and binding affinity of alpha-adrenoceptor agonists and antagonists” (J Med Chem, 1984).
# Protein sequences, listed by entry. Tags and fused reporters are not part of them. Lines headed by an entry give the natural chain unless they say otherwise; changes in a name come on top.
# UniProt P22086: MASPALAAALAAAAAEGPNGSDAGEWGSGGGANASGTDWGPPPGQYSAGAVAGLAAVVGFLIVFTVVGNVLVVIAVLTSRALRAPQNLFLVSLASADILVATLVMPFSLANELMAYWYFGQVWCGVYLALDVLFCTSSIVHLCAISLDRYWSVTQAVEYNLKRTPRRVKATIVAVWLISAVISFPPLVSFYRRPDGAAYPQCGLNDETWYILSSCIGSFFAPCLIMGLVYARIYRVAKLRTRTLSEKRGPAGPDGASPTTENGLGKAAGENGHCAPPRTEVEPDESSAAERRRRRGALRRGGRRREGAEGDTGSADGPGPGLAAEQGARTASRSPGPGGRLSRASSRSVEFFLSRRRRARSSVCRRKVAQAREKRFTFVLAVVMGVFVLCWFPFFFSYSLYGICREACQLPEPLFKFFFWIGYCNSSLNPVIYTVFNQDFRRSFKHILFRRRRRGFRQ
# UniProt P19328: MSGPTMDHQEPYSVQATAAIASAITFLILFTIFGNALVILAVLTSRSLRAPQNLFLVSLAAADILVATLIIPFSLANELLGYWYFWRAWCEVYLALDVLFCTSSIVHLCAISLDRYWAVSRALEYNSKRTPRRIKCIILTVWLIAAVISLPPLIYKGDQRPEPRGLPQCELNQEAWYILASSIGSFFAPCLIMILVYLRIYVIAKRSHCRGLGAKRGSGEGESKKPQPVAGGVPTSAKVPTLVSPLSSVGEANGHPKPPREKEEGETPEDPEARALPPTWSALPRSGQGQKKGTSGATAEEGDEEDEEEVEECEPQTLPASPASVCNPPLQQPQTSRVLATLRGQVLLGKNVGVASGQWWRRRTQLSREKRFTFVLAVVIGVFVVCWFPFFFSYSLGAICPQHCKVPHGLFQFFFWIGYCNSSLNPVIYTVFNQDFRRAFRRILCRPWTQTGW
# UniProt P22909: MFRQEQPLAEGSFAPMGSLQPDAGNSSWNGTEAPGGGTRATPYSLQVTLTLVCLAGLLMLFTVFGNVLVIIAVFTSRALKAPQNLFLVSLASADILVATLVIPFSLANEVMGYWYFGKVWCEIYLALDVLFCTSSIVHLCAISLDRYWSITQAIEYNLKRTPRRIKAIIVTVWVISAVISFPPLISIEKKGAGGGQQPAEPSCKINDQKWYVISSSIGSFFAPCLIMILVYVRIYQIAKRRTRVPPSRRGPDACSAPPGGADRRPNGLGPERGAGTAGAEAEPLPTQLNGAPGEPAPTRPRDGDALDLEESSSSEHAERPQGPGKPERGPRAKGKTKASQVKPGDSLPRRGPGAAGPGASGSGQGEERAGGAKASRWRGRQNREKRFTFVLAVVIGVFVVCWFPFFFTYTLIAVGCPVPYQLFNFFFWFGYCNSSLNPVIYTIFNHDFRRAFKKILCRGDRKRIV
# Target: Adrenergic receptor alpha-2 (Rattus norvegicus, UniProt P22086+P19328+P22909)
# Assay: Binding affinity against Alpha-2 adrenergic receptor is the ability to inhibit the specific [3H]clonidine binding (0.4 nM) to rat isolated brain membranes by 50% was reported; 4.8*10e-9
# Type: tissue-based, Membrane
smiles,measurement,value
c1ccc2c(CC3=NCCN3)cccc2c1 [NAPHAZOLINE],IC50,4.8 nM
